Results reported in US20200299407 (published 2020).

Target: HER2 (human, UniProt P04626)
Assay: SPR

Kd: 0.74 nM
B1: CrossMabXPer Trastuzumab arm (antibody)
chain 1: [letters of about 120 residues left out]
chain 2: DIQMTQSPSSLSASVGDRVTITCRASQDVNVAVAWYQQKPGKAPKLLIYSASFLYSGVPSRFSGSRSGTDFTLTISSLQPEDFATYYCQQHYTTPPTFGQGTKVEIK
